Earlier results as cited in PMC9400206.
Values joined by “and” are separate entries in the source; they are usually repeats but may differ in a detail not shown here. Equal values may be shown once.

Chains of the proteins cited; added tags and fusions are not shown. Residues count along the entry.
UniProt P10721, 26-524: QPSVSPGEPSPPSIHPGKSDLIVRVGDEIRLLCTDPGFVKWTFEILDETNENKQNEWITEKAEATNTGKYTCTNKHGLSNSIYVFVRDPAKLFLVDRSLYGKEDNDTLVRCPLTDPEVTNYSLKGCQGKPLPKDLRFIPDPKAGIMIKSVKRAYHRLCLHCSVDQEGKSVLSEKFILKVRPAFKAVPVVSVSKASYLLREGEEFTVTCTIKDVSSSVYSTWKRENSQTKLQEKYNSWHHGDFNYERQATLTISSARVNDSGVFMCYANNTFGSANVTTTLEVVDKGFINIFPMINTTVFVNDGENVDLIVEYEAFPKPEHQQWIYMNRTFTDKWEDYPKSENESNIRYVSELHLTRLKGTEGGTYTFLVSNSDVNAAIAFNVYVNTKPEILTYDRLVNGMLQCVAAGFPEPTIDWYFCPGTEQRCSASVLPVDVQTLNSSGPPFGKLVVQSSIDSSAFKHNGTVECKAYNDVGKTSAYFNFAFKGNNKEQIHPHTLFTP
UniProt P21583, 26-190: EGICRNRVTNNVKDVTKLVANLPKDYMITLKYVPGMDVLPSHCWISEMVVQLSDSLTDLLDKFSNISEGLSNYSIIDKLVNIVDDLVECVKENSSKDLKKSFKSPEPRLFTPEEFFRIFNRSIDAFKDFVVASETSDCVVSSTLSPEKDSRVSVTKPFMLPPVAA

Target: KIT (Homo sapiens) (UniProt P10721)

- Kd: 4 nM and 0.57 nM
Substance: SCF (from UniProt P21583)
